Test results reported in patent US20070142290A1, “SURFACE-MODIFIED SERUM ALBUMIN-METAL PORPHYRIN COMPOSITE, AND OXYGEN INFUSION SOLUTION CONTAINING THE SAME” (Eishun Tsuchida, priority 2004, published 2007).

Assay: oxygen adsorption/desorption followed by ultraviolet-visible absorption spectrum
Type: physicochemical
Settings: aqueous solution, alternately blowing oxygen and nitrogen
Description: The surface-modified serum albumin-iron(II) porphyrin complex (carbon monoxide complex) aqueous solution (4 mL) prepared in Example 1 was put into a 1 cm quartz cell for spectroscope, and, light was irradiated onto the porphyrin iron(II) complex coupled albumin aqueous solution (10 minutes) by using a halogen lamp (500 W), while being cooled in ice water and passing (flowing) oxygen therethrough. Thereafter, ultraviolet-visible absorption spectrum measurement of the obtained aqueous solution was carried out. After confirmation of the formation of an oxygen complex, nitrogen was passed therethrough to effect deoxygenation, preparing the deoxy form. […] In addition, it was possible to carry out the adsorption/desorption of oxygen successively by repeating an operation of blowing oxygen and then blowing nitrogen.

Example 1: polyoxyethylene (Mw 5,000) surface-modified human serum albumin clathrating 2-(N-(8-(2-methylimidazolyl)octanoyloxy))methyl-5,10,15,20-tetrakis(α,α,α,α-o-(1-methylcyclohexanamido)phenyl)porphinato iron(II); 6 chains in average
reversibility of oxygen adsorption/desorption: adsorption/desorption of oxygen reversibly takes place
